Yeast mating assay 2: variants of the scFv Ab-91

All variants were tested on one target, the spike HR2 peptide PDVDLGDISGINAS (SARS-CoV-2).

Each scFv is VL, the linker GGGGSGGGGSGGGGS, VH, as in the parent Ab-91, and differs from it in the CDRs of the heavy chain only.
VL: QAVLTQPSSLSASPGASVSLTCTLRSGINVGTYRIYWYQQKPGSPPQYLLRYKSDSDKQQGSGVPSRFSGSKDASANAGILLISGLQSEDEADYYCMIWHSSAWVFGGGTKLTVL
VH: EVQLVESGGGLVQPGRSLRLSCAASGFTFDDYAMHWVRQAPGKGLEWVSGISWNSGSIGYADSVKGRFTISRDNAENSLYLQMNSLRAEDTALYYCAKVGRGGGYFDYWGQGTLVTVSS

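The library (AAYL51) carries one to three amino acid substitutions per variant, with no insertions or deletions. In AlphaSeq, yeast of one mating type display the scFv and yeast of the other type display the target. Binding brings cells together so that they mate, and sequencing counts the barcode pairs among the diploids. Scores were corrected for input abundance and mapped to Kd with protein pairs of known affinity run in the same pool. The assay was run in three technical replicates.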

Variants are written as CDR1, CDR2 and CDR3 of the heavy chain (limits as in the source). Parent: GFTFDDYAMH, GISWNSGSIGYADSVK, VGRGGGYFDY. Values are log10 of the apparent Kd in nM; lower means stronger binding. "ND" means that the variant was in the library but no mating with the target was seen in that replicate; the authors take this as a sign of poor binding, and no number exists. In this assay the parent's reference entry averaged 1.86; its copy inside this library read 0.88. Background: pairings of library AAYL51 with three empty control strains gave a value in 21% of cases (median 4.54, 5th percentile 3.26). Values in that range, when seen in few replicates, are hard to tell from nonspecific mating. The control count says in how many pairings with the empty strains this scFv gave a signal, with their mean in brackets.

| CDR-H1 | CDR-H2 | CDR-H3 | replicates, log10 nM | signal with controls |
|---|---|---|---|---|
| GFTFDDYAHH | GISWNSGSIGYADSTK | VGRGGGYFDY | ND / ND / ND | 2/9 (4.52) |
| GFTFDDYAMH | CISKNSTSIGYADSVK | VGRGGGYFDY | ND / 5.13 / ND | 5/9 (4.57) |
| GFTFDDYAMH | GISFNSGSIGYDDSVK | VGRGGQYFDY | 1.58 / 1.10 / 0.90 | 0/9 |
| GTTFDDYAMH | GISWNSGSIGYADSVK | VGRGGGHFDY | 3.94 / ND / 2.71 | 3/9 (4.07) |
| GFTFDDYAMH | LTSWNSGSIGYADSVK | VGWGGGYFDY | 4.22 / 4.32 / ND | 2/9 (4.21) |
| GFGFDDYAMH | GISKNPGSIGYADSVK | VGRGGGYFDY | ND / ND / ND | 0/9 |
| GFTFDDYAMH | GISWNSGSIGGADSVK | VGRGCGYFDS | ND / ND / ND | 0/9 |
| GFTFDDYAMH | GISWNSTSIGYVDSVK | VGRGGGCFDY | 3.62 / ND / ND | 0/9 |
| GFVMDDYAMH | GISWNSGSIGYADSVK | VGRGGGYFDY | 2.26 / 2.38 / 2.19 | 4/9 (4.75) |
| GFTFDDYAMH | GISWNSGSIGYADCVC | VGRGGGYFKY | ND / ND / ND | 2/9 (3.64) |
| GFTFDDYAMH | GISWNSGSIGRAASVK | VGKGGGYFDY | ND / ND / 5.34 | 3/9 (5.06) |
| GFTFDDYAVH | GISWNSGSEGTADSVK | VGRGGGYFDY | ND / 3.28 / ND | 0/9 |
| QFTFDDYAMH | GKSWNSGSIGYADDVK | VGRGGGYFDY | ND / ND / ND | 0/9 |
| GFTFDDYYMH | GISWNSGSIGYADSVK | VGRGGGYFDQ | ND / ND / ND | 1/9 (4.53) |
| GFTFDDYAMH | GISWNSGTIGYAWSVK | VGRGGGYMDY | ND / ND / ND | 0/9 |
| GFTFDDYAMV | GISWNSSSIGYADSVK | KGRGGGYFDY | 5.15 / 4.57 / 5.33 | 6/9 (5.21) |
| GFTFDNYAMH | GIYWNSGSIGYANSVK | VGRGGGYFDY | 3.98 / ND / ND | 1/9 (5.05) |
| GFTFDDYAMH | GISWNSGSIGYADSVK | VWRGGGYFDL | 3.97 / 4.73 / ND | 6/9 (4.02) |
| GFKFDDYMMH | GISWNSGSIGYADSWK | VGRGGGYFDY | ND / 5.74 / 4.88 | 3/9 (3.93) |
| GFTFVDYAMH | GISWNSGSIGYAHSVK | VGRGGGYTDY | 3.29 / 3.14 / 3.36 | 0/9 |
| GFTFDDYAMH | GISWNSGSLGFADSVK | VGRGGGYFDY | ND / 3.94 / 3.74 | 0/9 |
| GFTFDDCAMH | GISWNAGSIGYADSVK | VGRGGKYFDY | 4.20 / ND / ND | 2/9 (3.52) |
| GFTFDDYAMH | GISWNSGHIGYADSVK | VGRGGGYFDY | ND / 4.28 / ND | 1/9 (3.28) |
| GFTFDDYAMH | GISWNSGSIGYADSKK | VGRGRAYFDY | ND / ND / ND | 1/9 (4.92) |
| GFTFDDYAMH | GISWNSGSIGYADYVT | VGHGGGYFDY | 3.88 / 3.90 / 3.59 | 1/9 (6.08) |
| GFSFDDYAMH | GISWNSGSSGYADPVK | VGRGGGYFDY | 5.37 / 6.05 / 5.37 | 4/9 (4.34) |
| GFTFDDYAMH | GISWNSGPIGYADSVK | VGRGGMYFDY | ND / 5.59 / ND | 5/9 (4.41) |
| GFTFDMYAMH | GISWRSGSIYYADSVK | VGRGGGYFDY | 4.97 / ND / ND | 2/9 (4.20) |
| GFTMDDYAMH | GISWNKGSIGYADSVK | VGRGGGYKDY | ND / ND / ND | 0/9 |
| GCTFDDYAQH | GISWNSGSIGYADSVK | VGRGGGYFDY | 4.03 / ND / ND | 4/9 (4.82) |
| GFTFDDYAMH | MAAWNSGSIGYADSVK | VGRGGGYFDY | ND / ND / ND | 0/9 |
| GFWGDDYAMH | GISNNSGSIGYADSVK | VGRGGGYFDY | 5.36 / 3.05 / ND | 3/9 (4.11) |
| GVTFDDYAWH | GISWNSGSIGYADQVK | VGRGGGYFDY | ND / ND / ND | 0/9 |
| GFTFDDYAMH | GISWESGSIGYACSVK | VVRGGGYFDY | 4.28 / 4.75 / 4.30 | 9/9 (5.03) |
| GFGFDDYAMH | GISWNSGSIGYVDSVK | VGRGGGYFIY | 4.23 / ND / ND | 2/9 (3.68) |
| GFTFDDYAMH | GISQNSGSHGYADSRK | VGRGGGYFDY | ND / ND / ND | 3/9 (4.22) |
| SITFDDYAMH | GISWWSGSIGYADSVK | VGRGGGYFDY | ND / ND / ND | 0/9 |
| GDTFDDYAMH | GISHNSGSIGYADSVK | VGRGGGYTDY | ND / ND / ND | 0/9 |
| GFTDDDYAMH | GISWNGGSKGYADSVK | VGRGGGYFDY | 1.87 / 1.83 / 1.63 | 4/9 (4.73) |
| GFTFDDYAMH | GMSWNSGSIGYTDSVK | VGRGGGYFTY | ND / 5.32 / ND | 1/9 (3.83) |
| VFTFDTYQMH | GISWNSGSIGYADSVK | VGRGGGYFDY | ND / 3.38 / ND | 1/9 (2.95) |

Reference: Engelhart et al. 2022, doi:10.1038/s41597-022-01779-4. File: FLAb, binding data.